Where two headings read alike, the source gives them in different places.
Molecular target: DEN2V NS2B-G4SG4-NS3 serine protease (Dengue virus type 2, UniProt Q91H74)
Assay: DEN2V protease inhibition assay
[1] = read-out: Dengue 2 - NS3 protease

SMILES | IC50 [1] [nM] | IC50 [nM]
COc1ncc(-c2ccc(C[n+]3cc([N-]C(=O)Nc4cc(NC(=O)Cc5noc6ccccc56)cc(C(F)(F)F)c4)on3)cc2)c(C)n1 [Example 20] | < 100 | 
O=C([N-]c1c[n+](Cc2ccccn2)no1)Nc1cc(NC(=O)C2CC2c2ccccc2)cc(C(F)(F)F)c1 (stereo not shown) [Example 50] | 100 to 1000 | 
Nc1ccc(CC(=O)Nc2cc(NC(=O)[N-]c3c[n+](Cc4ccccn4)no3)cc(C(F)(F)F)c2)cn1 [Example 42] | 100 to 1000 | 
O=C(Cn1c(C(F)F)nc2ccccc21)Nc1cc(NC(=O)[N-]c2c[n+](Cc3ccccn3)no2)cc(C(F)(F)F)c1 [Example 65] | 1000 to 20000 | 
O=C([N-]c1c[n+](Cc2ccccn2)no1)Nc1cc(NC(=O)c2ccc3[nH]cnc3c2)cc(C(F)(F)F)c1 [Example 29, ((3-(1H Benzo[d]imidazole-5-carboxamido)-5-(trifluoromethyl)phenyl)-carbamoyl)(3-(pyridin-2-ylmethyl)-1,2,3-oxadiazol-3-ium-5-yl)amide] |  | 1000 to 20000
O=C(Cc1ccccc1)Nc1cc(NC(=O)[N-]c2c[n+](C3CCNCC3)no2)cc(C(F)(F)F)c1 [Example 99, ((3-(2-Phenylacetamido)-5-(trifluoromethyl)-phenyl)carbamoyl)(3-(piperidin-4-yl)-1,2,3-oxadiazol-3-ium-5-yl)amide] |  | < 100
CN(CC(F)(F)F)[C@H]1CC[C@H](C[n+]2cc([N-]C(=O)Nc3cc(N4CC[C@H](c5ccccc5)C4=O)cc(C(F)(F)F)c3)on2)CC1 [Example 146, (3-(((1R,4R)-4-(Methyl(2,2,2-trifluoroethyl)-amino)cyclohexyl)methyl)-1,2,3-oxadiazol-3-ium-5-yl)((3-((R)-2-oxo-3-phenylpyrrolidin-1-yl)-5-(trifluoromethyl)phenyl)carbamoyl)amide] |  | < 100
Cn1cnnc1COCC(=O)Nc1cc(NC(=O)[N-]c2c[n+](Cc3ccccn3)no2)cc(C(F)(F)F)c1 [Example 72] | 1000 to 20000 | 
C=CCOC(=O)C[n+]1cc([N-]C(=O)Nc2cc(NC(=O)Cc3ccccc3)cc(C(F)(F)F)c2)on1 [Example 97, (3-(2-(Allyloxy)-2-oxoethyl)-1,2,3-oxadiazol-3-ium-5-yl)((3-(2-phenylacetamido)-5-(trifluoromethyl)phenyl)carbamoyl)amide] |  | < 100
O=C(Cc1ccccc1)Nc1cc(NC(=O)[N-]c2c[n+](CC3CC(NCc4ccc(O)cn4)C3)no2)cc(C(F)(F)F)c1 (stereo not shown) [Example 134, (3-((3-(((5-Hydroxypyridin-2-yl)methyl)amino)-cyclobutyl)methyl)-1,2,3-oxadiazol-3-ium-5-yl)((3-(2-phenylacetamido)-5-(trifluoromethyl)-phenyl)carbamoyl)amide] |  | < 100
O=C(CCOC1CCCC1)Nc1cc(NC(=O)[N-]c2c[n+](Cc3ccccn3)no2)cc(C(F)(F)F)c1 [Example 73] | < 100 | 
COc1ncc(-c2ccc(C[n+]3cc([N-]C(=O)Nc4cc(NC(=O)c5ccccc5)cc(C(F)(F)F)c4)on3)cc2)c(C)n1 [Example 15] | < 100 | 
O=C(Cc1ccccc1)Nc1cc(NC(=O)[N-]c2c[n+](CC3CCCCN3)no2)cc(C(F)(F)F)c1 (stereo not shown) [Example 125, ((3-(2-Phenylacetamido)-5-(trifluoromethyl)-phenyl)carbamoyl)(3-(piperidin-2-ylmethyl)-1,2,3-oxadiazol-3-ium-5-yl)amide] |  | < 100
O=C([N-]c1c[n+](C[C@H]2CC[C@H](NCC(F)(F)F)CC2)no1)Nc1cc(N2CCC(c3ccccc3)C2=O)cc(C(F)(F)F)c1 (stereo partly drawn) [Example 137, ((3-(2-Oxo-3-phenylpyrrolidin-1-yl)-5-(trifluoromethyl)phenyl)carbamoyl)(3-(((1R,4R)-4-((2,2,2-trifluoroethyl)amino)-cyclohexyl)methyl)-1,2,3-oxadiazol-3-ium-5-yl)amide] |  | < 100
COc1ncc(-c2ccc(C[n+]3cc([N-]C(=O)Nc4cc(NC(=O)Cc5ccc(Cl)cc5)cc(C(F)(F)F)c4)on3)cc2)c(C)n1 [Example 17] | < 100 | 
O=C([N-]c1c[n+](Cc2ccccn2)no1)Nc1cc(NC(=O)C2CC(Cc3ccccc3)C2)cc(C(F)(F)F)c1 (stereo not shown) [Example 68] | 100 to 1000 | 
NCc1ccc(CC(=O)Nc2cc(NC(=O)[N-]c3c[n+](Cc4ccccn4)no3)cc(C(F)(F)F)c2)cc1 [Example 27, ((3-(2-(4-(Aminomethyl)phenyl)acetamido)-5-(trifluoromethyl)phenyl)carbamoyl)(3-(pyridin-2-ylmethyl)-1,2,3-oxadiazol-3-ium-5-yl)amide] |  | 1000 to 20000
COc1ncc(-c2ccc(C[n+]3cc([N-]C(=O)Nc4cc(NC(=O)Cc5cccnc5)cc(C(F)(F)F)c4)on3)cc2)c(C)n1 [Example 19, (3-(4-(2-Methoxy-4-methylpyrimidin-5-yl)benzyl)-1,2,3-oxadiazol-3-ium-5-yl)((3-(2-(pyridin-3-yl)acetamido)-5-(trifluoromethyl)phenyl)carbamoyl)amide] |  | < 100
O=C([N-]c1c[n+](Cc2ccccn2)no1)Nc1cc(NC(=O)c2cnccn2)cc(C(F)(F)F)c1 [Example 45] | 1000 to 20000 | 

SMILES | IC50 [1] [nM] | IC50 [nM]
CN1CCC([n+]2cc([N-]C(=O)Nc3cc(NC(=O)Cc4ccccc4)cc(C(F)(F)F)c3)on2)CC1 [Example 100, (3-(1-Methylpiperidin-4-yl)-1,2,3-oxadiazol-3-ium-5-yl)((3-(2-phenylacetamido)-5-(trifluoromethyl)phenyl)carbamoyl)amide] |  | 100 to 1000
O=C(Cc1ccccc1)Nc1cc(NC(=O)[N-]c2c[n+](CC3CCNCC3)no2)cc(C(F)(F)F)c1 [Example 120] | < 100 | 
O=C(Cc1ccccc1)Nc1cc(NC(=O)[N-]c2c[n+](Cc3ccc(Br)cn3)no2)cc(C(F)(F)F)c1 [Example 12, (3-((5-Bromopyridin-2-yl)methyl)-1,2,3-oxadiazol-3-ium-5-yl)((3-(2-phenylacetamido)-5-(trifluoromethyl)phenyl)carbamoyl)amide] |  | < 100
COC(=O)c1ccc(C[n+]2cc([N-]C(=O)Nc3cc(NC(=O)Cc4ccccc4)cc(C4CC4)c3)on2)nc1 [Example 128, ((3-Cyclopropyl-5-(2-phenylacetamido)phenyl)-carbamoyl)(3-((5-(methoxycarbonyl)pyridin-2-yl)methyl)-1,2,3-oxadiazol-3-ium-5-yl)amide] |  | < 100
O=C([N-]c1c[n+](Cc2ccccn2)no1)Nc1cc(NC(=O)c2cccc(Oc3ccccc3)c2)cc(C(F)(F)F)c1 [Example 31] | 1000 to 20000 | 
Cn1cncc1-c1ccc(C[n+]2cc([N-]C(=O)Nc3cc(NC(=O)Cc4ccccc4)cc(C(F)(F)F)c3)on2)nc1 [Example 6, (3-((5-(1-Methyl-1H-imidazol-5-yl)pyridin-2-yl)methyl)-1,2,3-oxadiazol-3-ium-5-yl)((3-(2-phenylacetamido)-5-(trifluoromethyl)phenyl)carbamoyl)amide] |  | < 100
Cc1ccc(CN2CCC(C(=O)Nc3cc(NC(=O)[N-]c4c[n+](Cc5ccccn5)no4)cc(C(F)(F)F)c3)CC2)o1 [Example 70] | 1000 to 20000 | 
O=C([N-]c1c[n+](Cc2ccccn2)no1)Nc1cc(NC(=O)C2CS(=O)(=O)CCO2)cc(C(F)(F)F)c1 (stereo not shown) [Example 88] | > 20000 | 
O=C([N-]c1c[n+](Cc2ccccn2)no1)Nc1cc(NC(=O)C2CCn3cncc3C2)cc(C(F)(F)F)c1 (stereo not shown) [Example 80, (3-(Pyridin-2-ylmethyl)-1,2,3-oxadiazol-3-ium-5-yl)((3-(5,6,7,8-tetrahydroimidazo [1,5-a]pyridine-7-carboxamido)-5-(trifluoromethyl)phenyl)carbamoyl)amide] |  | 1000 to 20000
CC(c1ccc(C(=O)Nc2cc(NC(=O)[N-]c3c[n+](Cc4ccccn4)no3)cc(C(F)(F)F)c2)cc1)S(N)(=O)=O (stereo not shown) [Example 78, (3-(Pyridin-2-ylmethyl)-1,2,3-oxadiazol-3-ium-5-yl)((3-(4-(1-sulfamoylethyl)-benzamido)-5-(trifluoromethyl)phenyl)carbamoyl)amide] |  | 1000 to 20000
Cc1nc(CC(=O)Nc2cc(NC(=O)[N-]c3c[n+](Cc4ccccn4)no3)cc(C(F)(F)F)c2)cs1 [Example 41, ((3-(2-(2-Methylthiazol-4-yl)acetamido)-5-(trifluoromethyl)phenyl)-carbamoyl)(3-(pyridin-2-ylmethyl)-1,2,3-oxadiazol-3-ium-5-yl)amide] |  | 100 to 1000
O=C([N-]c1c[n+](Cc2ccccn2)no1)Nc1cc(NC(=O)C23CC(C(=O)O)(C2)C3)cc(C(F)(F)F)c1 [Example 52, ((3-(3-Carboxybicyclo[1.1.1]pentane-1-carboxamido)-5-(trifluoromethyl)phenyl)-carbamoyl)(3-(pyridin-2-ylmethyl)-1,2,3-oxadiazol-3-ium-5-yl)amide] |  | 1000 to 20000
N#Cc1ccn(C2(C(=O)Nc3cc(NC(=O)[N-]c4c[n+](Cc5ccccn5)no4)cc(C(F)(F)F)c3)CC2)n1 [Example 71] | 1000 to 20000 | 
O=C(CCCCS(=O)(=O)N1CCCCC1)Nc1cc(NC(=O)[N-]c2c[n+](Cc3ccccn3)no2)cc(C(F)(F)F)c1 [Example 82] | 1000 to 20000 | 
O=C(CC1CC2CC1C2)Nc1cc(NC(=O)[N-]c2c[n+](Cc3ccccn3)no2)cc(C(F)(F)F)c1 (stereo not shown) [Example 63, ((3-(2-(Bicyclo[2.1.1]hexan-2-yl)acetamido)-5-(trifluoromethyl)phenyl)carbamoyl)(3-(pyridin-2-ylmethyl)-1,2,3-oxadiazol-3-ium-5-yl)amide] |  | 100 to 1000
O=C([N-]c1c[n+](Cc2ccccn2)no1)Nc1cc(NC(=O)c2[nH]cc3c2CCC3)cc(C(F)(F)F)c1 [Example 87, (3-(Pyridin-2-ylmethyl)-1,2,3-oxadiazol-3-ium-5-yl)((3-(2,4,5,6-tetrahydrocyclopenta[c]pyrrole-1-carboxamido)-5-(trifluoromethyl)phenyl)-carbamoyl)amide] |  | > 20000
Cc1cccc2c1OCC2C(=O)Nc1cc(NC(=O)[N-]c2c[n+](Cc3ccccn3)no2)cc(C(F)(F)F)c1 (stereo not shown) [Example 67] | 100 to 1000 | 
Cc1noc(C)c1-c1ccc([C@@H](CN)[n+]2cc([N-]C(=O)Nc3cc(NC(=O)Cc4ccccc4)cc(C(F)(F)F)c3)on2)cc1 [Example 24, (S)-(3-(2-Amino-1-(4-(3,5-dimethylisoxazol-4-yl)phenyl)ethyl)-1,2,3-oxadiazol-3-ium-5-yl)((3-(2-phenylacetamido)-5-(trifluoromethyl)phenyl)carbamoyl)amide] |  | < 100

— patent EP4563146A1 (IRBM S.P.A., priority 2023, dated 2025)
